pEC50: −log10 of the molar value.
Target: T1, hV1a receptor (Homo sapiens, UniProt P37288)
T1 construct: expressed in transfected cells; host or cells: HEK-293
Assay: In vitro receptor assay: transcriptional reporter (luciferase) assay of agonist activity in HEK-293 cells transiently transfected with hV1a receptor
Type: cell-based
Details: hV1a receptor in HEK-293 cells, 5 hours exposure, geometric mean of at least three independent experiments, nanomol/L, read-out: EC50 (median effective concentration)
Procedure: Agonist activity of compounds on the hV1a receptor was determined in a transcriptional reporter assay by transiently transfecting a hV1a receptor expression DNA into HEK-293 cells in concert with a reporter DNA containing intracellular calcium responsive promoter elements regulating expression of firefly luciferase. See Boss, V., Talpade, D. J., Murphy, T. J. J. Biol. Chem. 1996, May 3; 271(18), 10429-10432 for further guidance on this assay.
The EC50 value given is the geometric mean expressed in nanomol/L (nM).

Sequences of proteins named here, by UniProt entry; tags and fusion partners are left off.
UniProt P37288, whole entry: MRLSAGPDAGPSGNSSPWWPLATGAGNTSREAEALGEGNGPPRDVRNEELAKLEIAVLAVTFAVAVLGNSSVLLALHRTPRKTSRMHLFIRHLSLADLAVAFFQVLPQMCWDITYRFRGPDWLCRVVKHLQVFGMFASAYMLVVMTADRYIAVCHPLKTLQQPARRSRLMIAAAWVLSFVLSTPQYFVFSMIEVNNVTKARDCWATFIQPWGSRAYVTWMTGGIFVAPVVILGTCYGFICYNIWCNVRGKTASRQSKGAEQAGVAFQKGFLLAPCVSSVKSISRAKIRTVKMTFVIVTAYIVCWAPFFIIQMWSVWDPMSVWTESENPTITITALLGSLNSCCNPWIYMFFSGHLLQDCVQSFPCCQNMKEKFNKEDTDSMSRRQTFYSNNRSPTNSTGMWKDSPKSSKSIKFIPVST

Row | SMILES | pEC50
1 | CC[C@H](C)[C@@H]1NC(=O)[C@H](CC(C)(C)C)NC(=O)[C@@H](N)CSSC[C@@H](C(=O)N2CCC[C@H]2C(=O)N[C@@H](CCN)C(=O)NCC(N)=O)NC(=O)[C@H](CC(N)=O)NC(=O)[C@H](CCC(N)=O)NC1=O [compound 5] | 7.97
2 | CC[C@H](C)[C@@H]1NC(=O)[C@H](CC(C)C)NC(=O)[C@@H](N)CSSC[C@@H](C(=O)N2CCC[C@H]2C(=O)N[C@@H](CCN)C(=O)NCC(N)=O)NC(=O)[C@H](CC(N)=O)NC(=O)[C@H](CCC(N)=O)NC1=O [compound 6] | 7.92

— patent publication US8883965B2, “Compounds” (Ferring B.V., priority 2006, dated 2014)
